Measured values from patent US12304939B2, “EGFR and C-met fibronectin type III domain binding molecules” (Janssen Biotech, Inc., priority 2012, dated 2025).
Where “and” joins values, the source holds several entries; their conditions need not be identical. Equal entries are not always repeated.

Assays:
[1] = system: H292-HGF human lung cancer xenograft; test: Efficacy of bispecific molecule and other inhibitors of EGFR and c-Met, subcutaneous H292-HGF human lung cancer xenograft; format: in vivo, SCID/Beige mice; details: for Tumor volume: mean ± SEM
[2] = mouse, in vivo

Q: What does the source list for cetuximab?
A: Tumor Size at day 23 ([1]; bispecific 25 mg/kg, crizotinib, erlotinib 50 mg/kg, cetuximab 1 mg/mouse): 485 mm^3 and 485 ± 61 mm^3; Tumor volume ([1]; day 7 (start of treatment)): 139 ± 10 mm^3; Tumor volume ([1]; day 9): 168 ± 13 mm^3; Tumor volume ([1]; day 13): 212 ± 20 mm^3; Tumor volume ([1]; day 16): 252 ± 28 mm^3; Tumor volume ([1]; day 20): 371 ± 48 mm^3; T/C ([1]; day 23, treated versus vehicle mean tumor volume): 28%; Tumor volume ([1]; day 23): 485 ± 61 mm^3; Tumor volume ([1]; day 27): 640 ± 82 mm^3; Tumor volume ([1]; day 30): 869 ± 100 mm^3; antitumor activity (in words) ([1]; mouse, in vivo): significant antitumor activities; T-C at 1000 mm^3 (tumor growth delay) ([1]; versus vehicle group): 17 days; toxicity, body weight loss, tolerability (in words) [2]: well tolerated
